Laboratory results taken from article PMC4748418 (Journal of chromatography. A, 2015).

Sequences of proteins named here, by UniProt entry; tags and fusion partners are left off. Residues count along the entry.
UniProt P30532, 23-468: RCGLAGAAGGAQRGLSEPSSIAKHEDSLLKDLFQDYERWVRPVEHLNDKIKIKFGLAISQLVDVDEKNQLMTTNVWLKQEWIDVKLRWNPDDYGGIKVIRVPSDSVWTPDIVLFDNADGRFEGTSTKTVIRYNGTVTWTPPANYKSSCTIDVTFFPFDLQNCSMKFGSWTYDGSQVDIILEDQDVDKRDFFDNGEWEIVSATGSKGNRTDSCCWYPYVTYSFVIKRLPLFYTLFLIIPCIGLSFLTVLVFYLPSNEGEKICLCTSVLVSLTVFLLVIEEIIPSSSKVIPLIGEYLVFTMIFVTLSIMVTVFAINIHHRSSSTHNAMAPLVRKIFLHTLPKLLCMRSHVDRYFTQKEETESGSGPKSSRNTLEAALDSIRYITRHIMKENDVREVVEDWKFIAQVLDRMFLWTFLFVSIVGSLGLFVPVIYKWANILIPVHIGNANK
UniProt P30926, 22-498: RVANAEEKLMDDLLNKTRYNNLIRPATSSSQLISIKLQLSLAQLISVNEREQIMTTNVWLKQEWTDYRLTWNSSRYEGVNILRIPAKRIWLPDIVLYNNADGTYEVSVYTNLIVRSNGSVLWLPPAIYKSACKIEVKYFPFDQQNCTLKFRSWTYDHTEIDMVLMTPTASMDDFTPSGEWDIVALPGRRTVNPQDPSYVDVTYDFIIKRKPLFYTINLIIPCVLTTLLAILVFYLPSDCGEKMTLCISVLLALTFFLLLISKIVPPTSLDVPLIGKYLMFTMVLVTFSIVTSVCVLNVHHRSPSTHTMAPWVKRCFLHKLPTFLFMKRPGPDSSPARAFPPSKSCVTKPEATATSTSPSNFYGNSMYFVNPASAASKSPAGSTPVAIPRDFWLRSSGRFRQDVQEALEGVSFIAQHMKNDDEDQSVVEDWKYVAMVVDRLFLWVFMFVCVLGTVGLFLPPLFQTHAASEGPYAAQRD
UniProt P32297, 32-505: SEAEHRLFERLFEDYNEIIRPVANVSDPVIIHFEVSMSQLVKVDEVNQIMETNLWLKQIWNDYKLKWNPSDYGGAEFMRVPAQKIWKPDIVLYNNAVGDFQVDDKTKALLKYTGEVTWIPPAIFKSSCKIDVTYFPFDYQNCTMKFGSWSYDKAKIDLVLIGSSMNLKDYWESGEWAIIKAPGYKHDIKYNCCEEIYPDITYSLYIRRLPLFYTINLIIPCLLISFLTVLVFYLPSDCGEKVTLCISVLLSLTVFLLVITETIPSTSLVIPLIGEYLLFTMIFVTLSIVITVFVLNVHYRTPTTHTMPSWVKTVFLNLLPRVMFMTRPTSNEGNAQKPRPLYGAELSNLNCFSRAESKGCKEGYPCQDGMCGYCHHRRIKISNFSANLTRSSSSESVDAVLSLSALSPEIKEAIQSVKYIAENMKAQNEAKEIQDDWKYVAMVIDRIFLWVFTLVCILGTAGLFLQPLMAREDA

What was measured:
[1] = biological target: α3β4α5 nAChR (Homo sapiens, UniProt P30532+P30926+P32297); experiment: biochemical
[2] = biological target: α3β4 nAChR (Homo sapiens, UniProt P30926+P32297); experiment: biochemical

Kd [1]: 3.4 µM
Kd [2]: 8.5 µM
SMILES: CNC1(C)C2CCC(C2)C1(C)C (centres unmarked) [MCM, Mecamylamine hydrochloride]

Structures can show the parent of a compound that is named as a salt.
